The test addresses HDAC4 (Homo sapiens, UniProt P56524). Description: HDAC4 enzymatic inhibition assay.

Protein sequences, listed by entry. Tags and fused reporters are not part of them. Lines headed by an entry give the natural chain unless they say otherwise; changes in a name come on top.
UniProt P56524: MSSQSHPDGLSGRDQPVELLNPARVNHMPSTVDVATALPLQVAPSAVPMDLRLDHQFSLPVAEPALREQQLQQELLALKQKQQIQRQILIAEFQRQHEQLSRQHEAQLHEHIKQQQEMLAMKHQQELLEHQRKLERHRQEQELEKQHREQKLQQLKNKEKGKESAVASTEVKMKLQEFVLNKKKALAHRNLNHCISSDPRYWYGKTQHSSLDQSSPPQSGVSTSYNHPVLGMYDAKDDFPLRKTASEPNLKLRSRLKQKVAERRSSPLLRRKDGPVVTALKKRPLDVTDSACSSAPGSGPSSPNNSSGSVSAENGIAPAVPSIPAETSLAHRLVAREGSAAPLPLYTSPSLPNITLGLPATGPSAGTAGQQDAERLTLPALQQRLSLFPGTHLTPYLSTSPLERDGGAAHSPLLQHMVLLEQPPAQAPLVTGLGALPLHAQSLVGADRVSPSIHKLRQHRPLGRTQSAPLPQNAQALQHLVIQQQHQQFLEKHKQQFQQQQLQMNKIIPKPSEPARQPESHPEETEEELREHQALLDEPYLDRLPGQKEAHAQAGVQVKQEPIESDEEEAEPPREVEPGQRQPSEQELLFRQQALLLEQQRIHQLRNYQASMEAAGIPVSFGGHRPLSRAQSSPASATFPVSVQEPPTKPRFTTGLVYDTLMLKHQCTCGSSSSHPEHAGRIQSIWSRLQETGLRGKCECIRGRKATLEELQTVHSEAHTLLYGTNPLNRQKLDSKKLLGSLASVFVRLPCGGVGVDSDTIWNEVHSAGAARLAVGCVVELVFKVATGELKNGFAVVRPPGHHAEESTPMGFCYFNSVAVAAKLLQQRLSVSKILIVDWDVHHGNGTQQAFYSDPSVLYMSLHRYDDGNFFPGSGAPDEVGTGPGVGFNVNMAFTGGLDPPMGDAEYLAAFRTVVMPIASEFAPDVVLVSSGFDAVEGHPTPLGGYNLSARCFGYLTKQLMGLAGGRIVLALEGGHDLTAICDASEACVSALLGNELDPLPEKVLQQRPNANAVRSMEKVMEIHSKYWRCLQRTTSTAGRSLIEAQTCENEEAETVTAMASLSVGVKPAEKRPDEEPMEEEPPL

Where a name gives a salt, the structure may show the parent alone.

As to `CN1CCc2c(c3ccccc3n2Cc2ccc(C(=O)NO)cc2)C1` [TubaA HCl, tubastatin A, reference compound], the IC50 (commonly the concentration that gives 50% inhibition) worked out at 1640 nM.

These data come from paper PMC4775085 (ACS chemical neuroscience, 2015).
